# Values quoted from earlier work in US20070231260A1, “Transporter-targeted methods of diagnosis and treatment” (priority 2005, published 2007).
# System: cell lines over-expressing GLUT2
# Details: vs cells not over-expressing GLUT2; Elsner et al. 2000; cited from earlier work
substance,measurement,value
streptozotocin,fold greater sensitivity (cytotoxicity) of GLUT2 over-expressing cell lines,~1000 fold
